{"source": "patent US7776913B2", "about": "“Carnitines for treating or preventing disorders caused by andropause” (Sigma-Tau Industrie Farmaceutiche Riunite S.p.A., priority 2002, dated 2010)", "test_system": "Patients aged over 60 years with lowered blood concentrations of free and total testosterone", "test": "Penile dynamic colour Doppler ultrasonography (PSV, EDV, RI of cavernous arteries)", "format": "in vivo, human", "conditions": "mean ± SD; for Right cavernous artery RI: values subjected to angular transformation; for Left cavernous artery RI: values submitted to angular transformation", "excerpt": "Reported here below is a clinical trial conducted in order to evaluate the activity of the combination according to the association in the treatment of the symptoms of male ageing.\nPatients aged over 60 years with lowered blood concentrations of free and total testosterone (The Aging Male 4: 151-162, 2001) and complaining of symptoms figuring in the working definition of andropause proposed by the International Society for the Study of the Aging Male (I.S.S.A.M.) (The Aging Male 4: 151-162, 2001): reduced libido or sex drive and erectile function, depressed mood, difficulty concentrating, irritability and fatigue.\nThe above-mentioned compounds were presented to the patients in anonymous containers and administered for 6 months.\nMedical history-taking and physical examinations were done for all patients. The following data were also collected prior to the start of treatment, after 1, 3 and 6 months of treatment: • 1. Total blood prostate-specific antigen (PSA) (ng/ml) as measured with the automatic test and monoclonal antibodies [Rigatti P., Scattoni V.: PSA: Antigene prostatico specifico. Edizioni Medico Scientifiche (EDIMES) Pavia, 1997]. • 2. Prostate volume (cm^3) as measured by suprapubic ultrasonography and calculated by means of the three diameters rule [Rigatti P. Scattoni V.: PSA: Antigene prostatico specifico. Edizioni Medico Scientifiche (EDIMES) Pavia, 1997]. • 3. Peak systolic volume (PSV) (cm/sec), end-diastolic velocity (EDV) (cm/sec), and Resistance Index (RI) (%) of the penile arteries (right and left cavernous e dorsal) as measured by means of penile basal and dynamic colour Doppler ultrasonography. RI was calculated as follows: (PSV-EDV/EDV)×100 (Urology 1997: 49: 822-830). • 4. Duration of full erections (in minutes) in the course of a recording period of three nights performed with Rigiscan. […] Free and total blood testosterone, LH and prolactin levels (The Aging Male 4: 151-162, 2001). • 6. Sexual function was checked by means of semistructured interviews and administration of the International Index of Erectile Function (IIEF-15) (Urology 1997: 49: 822-830). A score was calculated for each patient. • 7. Depression was quantified by means of the Hamilton Depression Scale questionnaire (DMS III) (Cancer 94: 2481-2489, 2002). A score was calculated for each patient. • 8. The subjective sensation of fatigue was calculated using the fatigue scale (Lison L.: Statistica applicata alla biologia sperimentale. Milano: Casa Editrice Ambrosiana, 1972). A score was calculated for each patient. • 9. Side effects.\nBlood concentrations of PSA, free and total testosterone, prolactin LH, prostate volume, PSV, EDV, RI, full erection duration, IIEF-15, DMS III, and fatigue scale scores were compared between and within groups by means of factorial analysis of variance for randomised blocks (1 patient=1 block). Comparison of the mean values was done on the raw data with the exclusion of RI which used data subjected to angular transformation (sin^−1 √P/100) for the comparisons."}
{"substance": "testosterone undecaonate", "values": [{"measurement": "Right cavernous artery RI", "setting": "3 months of therapy", "result": "60.9 ± 8.4", "unit": "%"}, {"measurement": "Left cavernous artery RI", "setting": "3 months of therapy", "result": "61.5 ± 7.8", "unit": "%"}, {"measurement": "Right cavernous artery RI", "setting": "6 months of therapy", "result": "61.1 ± 7.9", "unit": "%"}, {"measurement": "Left cavernous artery RI", "setting": "6 months of therapy", "result": "62.1 ± 7.0", "unit": "%"}, {"measurement": "Right cavernous artery RI", "setting": "before therapy", "result": "64.6 ± 8.4", "unit": "%"}, {"measurement": "Left cavernous artery RI", "setting": "before therapy", "result": "61.5 ± 8.3", "unit": "%"}]}
